AlphaSeq binding of Ab-14 light chain variants to a spike HR2 peptide

Reference: Li et al. 2023, doi:10.1038/s41467-023-39022-2. File: FLAb, binding data.

Antigen: PDVDLGDISGINAS, a 14-residue peptide of the SARS-CoV-2 spike HR2 region.

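Phage display of a naive human antibody library on the peptide gave the parent. Designed CDR sequences, proposed from the first random library and measured here. Several design methods are mixed in this list. AlphaSeq pools MATa yeast showing the antibodies with MATalpha yeast showing the peptide. The frequency of each diploid, read from paired DNA barcodes, reflects how well the two displayed proteins bind. Read counts were normalised to the haploid input and turned into Kd by a linear fit to BCL2-family pairs of known affinity, for each replicate. The assay was run in six technical replicates.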

Each scFv is VH, three GGGGS repeats, VL, as in the parent Ab-14, and differs from it in the CDRs of the light chain only.
VH: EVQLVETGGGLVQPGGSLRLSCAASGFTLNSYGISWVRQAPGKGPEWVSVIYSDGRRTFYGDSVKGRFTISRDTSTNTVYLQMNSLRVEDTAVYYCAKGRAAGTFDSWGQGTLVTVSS
VL: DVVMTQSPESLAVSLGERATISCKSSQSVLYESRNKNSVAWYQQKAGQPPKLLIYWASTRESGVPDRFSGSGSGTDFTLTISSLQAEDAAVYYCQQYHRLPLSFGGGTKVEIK

Each variant is given by its three light chain CDRs, as the data file delimits them; those of the parent are KSSQSVLYESRNKNSVA, WASTRES, QQYHRLPLS.
This list holds designs with more than six substitutions.
Kd is apparent (estimated from mating counts) and averaged on the log scale over replicates with a signal. Smaller is tighter.
A pair that was not seen in any replicate is written "nd"; this usually means weak binding, but a binder can also be missed.
The authors' rule: three or more of the six replicates give a measured affinity, fewer mean a poor binder.

* IVSQLMLWGMHAKNSIA | EAELRLN | QQYERLPLF: 40 nM (1 of 6 replicates)
* KVMGEMDYESRNKNSVA | HASERES | QQYHRLPLQ: 1.9 nM (6 of 6 replicates)
* TLSQMSGVESVKHNNVA | ENSTREE | QQYDRLPLA: nd (0 of 6 replicates)
* QIYQAMHTLMQQKNNVA | DVTNRQK | QQYNRLPLS: 1.1 nM (6 of 6 replicates)
* KLSQSVKYEDRNWNNVA | NASTRES | QDYHRLPLS: 510 pM (6 of 6 replicates)
* KVQQLGCMLSRNKNSVA | HASTRES | QQYHRLPLS: 5.0 nM (6 of 6 replicates)
* TISQMSQLFSQTLNNVA | EVSTRLN | QQYDRLPLA: 14 nM (6 of 6 replicates)
* MMSQVTGSGQRHRNNVA | QTSMREP | QQYDRLPLI: 7.4 nM (6 of 6 replicates)
* KISASVNYEMVNGQSVA | QMSTREE | QQYDRLPLS: 8.3 nM (6 of 6 replicates)
* KLGDMVHTLSRNKNSIA | DMRTRES | QQYYRLPLS: 4.5 nM (6 of 6 replicates)
* KLIQSVAMSSRNKDSIA | DNSTREY | QQYHRLPLS: 32 nM (6 of 6 replicates)
* MVNGIMDHLSKQTNNVA | EMTTRED | QQYDRLPLS: 32 nM (5 of 6 replicates)
* KLQASQEYWSRNKNSVA | QASTRET | QQYHRLPLS: 1.0 nM (6 of 6 replicates)
* MVSQLMVWGMRAKNSIA | EAQTRLN | QQYDRLPLF: 10 nM (6 of 6 replicates)
* TLHMVTEGMRRKHNSVA | DNSTRED | QQYDRLPLS: 380 nM (1 of 6 replicates)
* NISQMFLMETKNVNNVA | QTSTREE | QDYHRLPLS: 890 pM (6 of 6 replicates)
* ALVAQNLQNMDNLNSIA | DQSQTQE | QQYFRLPFA: nd (0 of 6 replicates)
* KLGSSTRFESSNKANIA | DNSTRES | QQYHRLPLS: 2.1 nM (6 of 6 replicates)
* IVSQLMLIGMHAKNSIA | EAETRIN | QQYHRLPLI: 4.6 µM (2 of 6 replicates)
* HITYGMQVLGRHSHSIA | QAETREK | QQYDRLPLA: 3.6 nM (6 of 6 replicates)
* KLLDWYYGQTAMDSNIA | DQALEMD | QQYSRLPLT: 170 nM (4 of 6 replicates)
* MLEWLEIGGQSVGNSIA | ANVQEQE | QQYFRLPLT: nd (0 of 6 replicates)
* HITYGMQVMGRHSKSIA | QAETRED | QQYDRLPLI: 4.5 nM (6 of 6 replicates)
* HLSDTVMQGSYFRNSVA | QESTRAD | QQYHRLPLS: 2.3 nM (6 of 6 replicates)
* KLRHHNLDFYEHENNIA | GESMRAV | QQYYRLPLN: 49 nM (6 of 6 replicates)
* KVSCSVMLESRNKNAVA | EASQRES | QQYHRLPLS: 790 pM (6 of 6 replicates)
* ALSQSMDMTSRNTNSVA | DLTTREN | QQYHRLPLS: 1.3 nM (6 of 6 replicates)
* QIDSFYQHGTDQNQAMA | DVSVRDQ | QQYSRLPLS: 1.5 nM (6 of 6 replicates)
* QIYQAMHTLSQKKNNVA | DVNERGQ | QQYFRLPLS: 1.0 nM (6 of 6 replicates)
* KFGQSVLTGSYVRNSVA | QSSTREN | QQYDRLPLS: 8.7 nM (6 of 6 replicates)
* KLSQSDCYEDRNLNNVA | NASQRES | QQYHRLPLM: 1.0 nM (6 of 6 replicates)
* HMSFLTLGGMRQKNSVA | QMTTREN | QQYDRLPLI: 8.1 nM (6 of 6 replicates)
* MISGSVMTESRLKNSVA | QTTTRES | QQYDRLPLS: 8.8 nM (6 of 6 replicates)
* TISQMWFVESKNRNNVA | EMTTREN | QDYDRLPLS: 3.4 nM (6 of 6 replicates)
* KISQMVKVGSTHSNSIA | EEVTRAK | QQYHRLPLS: 5.7 nM (6 of 6 replicates)
* KISQLVNFLGKNMNSVA | QMSTRES | QQYDRLPLS: 56 nM (5 of 6 replicates)
* KISQNMGETQRNKHSVA | EVSLVPA | QQYWRLPLS: 36 nM (4 of 6 replicates)
* KLMGSVEQLSRNKNSVA | HASLREV | QAYHRLPLS: 5.0 nM (6 of 6 replicates)
* QISQVMGLSMHGVNNVA | QMETRTD | QQYDRLPLS: 3.8 nM (6 of 6 replicates)
* MVTQMAMTGMKNKRSVA | NAETREN | QQYHRLPLI: 11 nM (6 of 6 replicates)
* KLDFLGPYEQRNKNSVA | SASTRCS | QQYHRLPLS: nd (0 of 6 replicates)
* KVSQSNLYESRNANNVA | NGSLRES | QQYHRLPLS: 660 pM (6 of 6 replicates)
* KSNQSVCYESRNKNWIA | WASTREA | QQHHRAPLS: 200 nM (1 of 6 replicates)
* KMSQSVDLESRNWNSVA | MASTRMD | QQYHRLPLS: 1.3 nM (6 of 6 replicates)
* SISGFMKSLAAHSNSVA | DMTNRES | QQYDRLPLS: 2.7 nM (6 of 6 replicates)
* VIKNMMNTMGTQVQNIA | NGAIKAD | QQYQRLPLW: 1.2 nM (6 of 6 replicates)
* KLSGSMLYELRNLNSVA | HASQRMS | QQYHRLPLS: 12 nM (6 of 6 replicates)
* KLYVSTMLETHNKNSIA | DLSTRGN | QQYHRLPLS: 5.3 nM (6 of 6 replicates)
* NLSGHPYNNSQYKNSIA | EDNNIRL | QQYHRLPFT: 8.9 nM (2 of 6 replicates)
* TISQSANMESHAKNSVA | DLNLRGS | QQYDRLPLS: 130 nM (5 of 6 replicates)

Background: pairings of all light chain designs with three empty control strains gave a value in 4% of cases (median 430 nM, 5th percentile 38 nM). Values in that range, when seen in few replicates, are hard to tell from nonspecific mating.
A sequence measured in both rounds can read differently, since the two assays cover different ranges.
Of ten entries with the parent sequence, four were seen in most replicates (averages 2.2 nM to 240 nM), three in one and three in none, so single entries are noisy.